Reference: patent publication US11897876B2, “Isoxazolidines as RIPK1 inhibitors and use thereof” (GENZYME CORPORATION, priority 2022, dated 2024)

What was measured:
[1] = target: T1, hRIPK1 (aa 1-375) fusion protein (Homo sapiens, UniProt Q13546); assay: ADP-Glo kinase assay of RIPK1 catalytic activity (autophosphorylation)
T1 sequence (Q13546 1-375): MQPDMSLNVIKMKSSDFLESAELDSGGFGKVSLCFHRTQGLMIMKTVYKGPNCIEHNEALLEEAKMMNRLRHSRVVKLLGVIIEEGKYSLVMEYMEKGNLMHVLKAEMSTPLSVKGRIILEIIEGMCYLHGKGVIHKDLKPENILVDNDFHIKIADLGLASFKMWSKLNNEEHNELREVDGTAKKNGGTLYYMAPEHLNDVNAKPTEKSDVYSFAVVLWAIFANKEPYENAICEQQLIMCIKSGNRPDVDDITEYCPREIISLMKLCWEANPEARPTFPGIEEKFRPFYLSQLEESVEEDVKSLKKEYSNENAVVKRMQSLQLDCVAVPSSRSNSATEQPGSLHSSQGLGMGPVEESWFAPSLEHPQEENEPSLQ

RIPK1 = RIPK1 (Homo sapiens, UniProt Q13546); conditions: WO2018092089; cited from earlier work

Question: Which IC50 [1] does the source give for `O=C(C1CCN(c2nccc(-c3ccccc3)n2)CC1)N1OCC[C@H]1c1ccccc1` [Comparator Example B, [(3S)-3-Phenylisoxazolidin-2-yl]-[1-(4-phenylpyrimidin-2-yl)-4-piperidyl]methanone, reference compound] here?
Answer: 16.4 nM

Question: Which “pIC50 (GSK data)” value (RIPK1) does the source give for `Cc1nnc(-c2cc(N3CCC(C(=O)N4N=CC[C@H]4c4ccccc4)CC3)ncn2)o1` [Comparator Example C, [1-[6-(5-Methyl-1,3,4-oxadiazol-2-yl)pyrimidin-4-yl]-4-piperidyl]-[(3S)-3-phenyl-3,4-dihydropyrazol-2-yl]methanone, reference compound] here?
Answer: 7-9

Question: For `Cc1cc(-c2cc(N3CCC(C(=O)N4OCC[C@H]4c4cc(F)cc(C#N)c4)CC3)ncn2)n(C)n1` [Example 9, 3-[(3S)-2-[1-[6-(2,5-Dimethylpyrazol-3-yl)pyrimidin-4-yl]piperidine-4-carbonyl]isoxazolidin-3-yl]-5-fluoro-benzonitrile], which IC50 [1] is on record?
Answer: 7 nM

Question: Which IC50 [1] does the source give for `Cn1nccc1-c1ncnc(N2CCC(C(=O)N3OCC[C@H]3c3cc(F)cc(F)c3)CC2)c1F` [Example 15, [(3S)-3-(3,5-Difluorophenyl)isoxazolidin-2-yl]-[1-[5-fluoro-6-(2-methylpyrazol-3-yl)pyrimidin-4-yl]-4-piperidyl]methanone] here?
Answer: 9 nM

Question: Which “pIC50 (GSK data)” value (RIPK1) does the source give for `O=C(C1CCN(c2nccc(-c3ccccc3)n2)CC1)N1N=CCC1c1ccccc1` (centres unmarked) [Comparator Example A, (3-Phenyl-3,4-dihydropyrazol-2-yl)-[1-(4-phenylpyrimidin-2-yl)-4-piperidyl]methanone, reference compound] here?
Answer: 8-9
